# Assay results: paper PMC11906762, “Toward a high-throughput in vitro model for estimating vitreous humor permeability of topically applied drugs” (Scientific Reports, 2025)
# Where a name gives a salt, the structure may show the parent alone.
# Conditions: PAMPA
structure (smiles),measurement,value
"CN(C)CCN(Cc1cccs1)c1ccccn1 [methapyrilene HCl, methapyrilene]",permeability decrease with HA-855 + agar compared with agar alone,decrease the permeability in a greater extent than agar alone
